Sequences of proteins named here, by UniProt entry; tags and fusion partners are left off.
UniProt P27338, whole entry: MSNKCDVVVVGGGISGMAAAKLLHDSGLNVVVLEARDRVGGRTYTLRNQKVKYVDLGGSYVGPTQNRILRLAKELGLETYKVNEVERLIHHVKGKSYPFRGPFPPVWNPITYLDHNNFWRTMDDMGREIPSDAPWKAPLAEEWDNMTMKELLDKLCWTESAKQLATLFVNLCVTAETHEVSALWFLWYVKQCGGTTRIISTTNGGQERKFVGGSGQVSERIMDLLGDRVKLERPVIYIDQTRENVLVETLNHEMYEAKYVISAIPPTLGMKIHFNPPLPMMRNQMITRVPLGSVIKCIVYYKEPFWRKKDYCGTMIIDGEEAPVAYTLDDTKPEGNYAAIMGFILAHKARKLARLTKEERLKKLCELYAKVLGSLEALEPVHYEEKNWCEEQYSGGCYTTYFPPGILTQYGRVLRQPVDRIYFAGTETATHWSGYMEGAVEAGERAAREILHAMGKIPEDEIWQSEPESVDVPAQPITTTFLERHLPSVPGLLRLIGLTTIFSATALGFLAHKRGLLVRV

In BindingDB's records for doi:10.1111/cbdd.12508 (North-West University, 2015):

Target: Amine oxidase [flavin-containing] B (Homo sapiens, UniProt P27338)
Assay: MAO Inhibition Assay
Protocol: IC50 values for the inhibition of MAO-A and MAO-B were determined using the recombinant human enzymes as enzyme sources, and kynuramine as non-selective MAO substrate. The concentrations of the MAO-generated 4-hydroxyquinoline were measured by fluorescence spectrophotometry (λex = 310; λem = 400 nm). The protocol for these experiments has been reported in detail in recent publications

Compound: O=C1CCCc2ccc(OCc3ccc(Cl)cc3)cc21 [7-[(4-Chlorobenzyl)oxy]-3,4-dihydronaphthalen-1(2H)-one (4g)]
- IC50: 4.1 nM
